# According to patent US8258098B2, “Antitumoral treatments” (Pharma Mar, S.A., priority 2006, dated 2012):
# How the values were obtained:
# Assay in all cases: Net tumor volume in tumor xenografts
# Assay type in all cases: in vivo, female athymic mice
# [1] = test system: MRI-H121 renal tumor xenografts; settings: Aplidine 25 μg/kg i.p., Avastin 2.5 mg/kg i.p., IL-2 1 μg/mouse i.p., INF-α 200,000 U/mouse s.c.
# Description: (§1) The purpose of this study was to evaluate the antitumor activity of Aplidine when administered with an antitumoral standard agent, both administered using multiple dosing schedule in several types of tumor xenografts in female athymic mice.
# (§2) Athymic nude female mice were received from Harlan Sprague Dawley, Madison, Wis. at 4-5 weeks of age. Mice were acclimated to the laboratory for at least one week prior to implantation of tumor. Animals were housed in static cages with food and water allowed ad libitum. Experimental animals were implanted with either tumor fragments derived from transplantation established human tumors or with cells obtain directly from in vitro culture. Tumors were implanted subcutaneously on the right flank on Day 0.
# (§3) Tumor size measurements were recorded twice weekly beginning on day 4 or 5 using vernier calipers. The formula to calculate volume for a prolate ellipsoid was used to estimate tumor volume from 2-dimensional tumor measurements: tumor volume (mm^3)=(length×width^2)÷2. Assuming unit density, volume was converted to weight (i.e., 1 mm^3=1 mg). When tumors reached an approximate volume range of 100±15 mg, mice were randomized into treatment and control groups. Treatments were initiated and administered on an individual body weight basis. A dose range finding study was performed on each tumor model to determine the appropriate dose level of each compound used in the combination studies.
# (§4) Table 10 and FIGS. 77, 78 and 79 show kinetics of net tumor volume after initiation of treatment with aplidine (APL) as single agent or in combination with Bevacizumab (Avastin®), Interleukin-2 (IL-2) and Interferon-α 2a (INF-α) in MRI-H121 renal tumor xenografts. Aplidine was administered every day for 9 consecutive days by i.p injection, saline control (sterile saline) every day for 9 consecutive days by i.p injection, Bevacizumab (Avastin®) every 3 days for a total of 4 treatments by i.p. injection, IL-2 every day during 5 weekdays (Monday-Friday) for 3 weeks by i.p. injection and INF-α every day during 5 weekdays (Monday-Friday) for 3 weeks by s.c. injection.
# [2] = test system: LOX-IMVI melanoma tumor xenografts; settings: IL-2 2 μg/mouse i.p., INF-α 200,000 U/mouse s.c.
# Description: as §2
# (§5) Tumor size measurements were recorded twice weekly beginning on day 4 or 5 using vernier calipers. The formula to calculate volume for a prolate ellipsoid was used to estimate tumor volume from 2-dimensional tumor measurements: tumor volume (mm^3)=(length×width^2)÷2. Assuming unit density, volume was converted to weight (i.e., 1 mm^3=1 mg). […] Treatments were initiated and administered on an individual body weight basis. A dose range finding study was performed on each tumor model to determine the appropriate dose level of each compound used in the combination studies.
# [3] = test system: MRI-H187 melanoma tumor xenografts; settings: Aplidine 50 μg/kg i.p., IL-2 2 μg/mouse i.p., INF-α 200,000 U/mouse s.c.
# Description: as §2, §5
# [4] = test system: CaKi-1 renal tumor xenografts; settings: Aplidine 50 μg/kg i.p., Avastin 5.0 mg/kg i.p., IL-2 2 μg/mouse i.p., INF-α 200,000 U/mouse s.c.
# Description: as §1, §2, §3
# as §4, with “9” for “10”, “74, 75” for “77, 78”, “76” for “79”, “CaKi-1” for “MRI-H121”
substance,measurement,setting,value
"IL-2: Interleukin-2 (IL-2), standard of care agent",Net Tumor Volume ± S.E.M.,"[1]; MRI-H121, DAY 11",108 ± 5 mg
same,Net Tumor Volume ± S.E.M.,"[1]; MRI-H121, DAY 14",201 ± 29 mg
same,Net Tumor Volume ± S.E.M.,"[1]; MRI-H121, DAY 18",402 ± 60 mg
same,Net Tumor Volume ± S.E.M.,"[1]; MRI-H121, DAY 19",366 ± 56 mg
same,Net Tumor Volume ± S.E.M.,"[1]; MRI-H121, DAY 21",475 ± 87 mg
same,Net Tumor Volume ± S.E.M.,"[1]; MRI-H121, DAY 26",737 ± 121 mg
same,Net Tumor Volume ± S.E.M.,"[1]; MRI-H121, DAY 29",922 ± 163 mg
same,Net Tumor Volume ± S.E.M.,"[1]; MRI-H121, DAY 32",1138 ± 205 mg
same,Net Tumor Volume ± S.E.M.,"[1]; MRI-H121, DAY 35",1175 ± 192 mg
same,Net Tumor Volume ± S.E.M.,"[1]; MRI-H121, DAY 39",1615 ± 273 mg
same,Net Tumor Volume ± S.E.M.,"[1]; MRI-H121, DAY 42",1873 ± 310 mg
same,Net Tumor Volume ± S.E.M.,"[2]; DAY 6, Aplidine 50 μg/kg i.p.",111 ± 5 mg
same,Net Tumor Volume ± S.E.M.,"[2]; DAY 9, Aplidine 50 μg/kg i.p.",357 ± 51 mg
same,Net Tumor Volume ± S.E.M.,"[2]; DAY 13, Aplidine 50 μg/kg i.p.",1541 ± 247 mg
same,Net Tumor Volume ± S.E.M.,"[2]; DAY 16, Aplidine 50 μg/kg i.p.",3315 ± 614 mg
same,Net Tumor Volume ± S.E.M.,"[3]; MRI-H187, DAY 21",113 ± 4 mg
same,Net Tumor Volume ± S.E.M.,"[3]; MRI-H187, DAY 23",171 ± 24 mg
same,Net Tumor Volume ± S.E.M.,"[3]; MRI-H187, DAY 27",314 ± 46 mg
same,Net Tumor Volume ± S.E.M.,"[3]; MRI-H187, DAY 30",420 ± 68 mg
same,Net Tumor Volume ± S.E.M.,"[3]; MRI-H187, DAY 34",647 ± 88 mg
same,Net Tumor Volume ± S.E.M.,"[3]; MRI-H187, DAY 37",843 ± 90 mg
same,Net Tumor Volume ± S.E.M.,"[3]; MRI-H187, DAY 40",1072 ± 136 mg
same,Net Tumor Volume ± S.E.M.,"[3]; MRI-H187, DAY 42",1215 ± 158 mg
same,Net Tumor Volume ± S.E.M.,"[3]; MRI-H187, DAY 48",1672 ± 166 mg
same,Net Tumor Volume ± S.E.M.,"[3]; MRI-H187, DAY 51",2005 ± 202 mg
same,Net Tumor Volume ± S.E.M.,"[4]; CaKi-1, DAY 13",103 ± 3 mg
same,Net Tumor Volume ± S.E.M.,"[4]; CaKi-1, DAY 15",143 ± 15 mg
same,Net Tumor Volume ± S.E.M.,"[4]; CaKi-1, DAY 19",224 ± 21 mg
same,Net Tumor Volume ± S.E.M.,"[4]; CaKi-1, DAY 22",324 ± 25 mg
same,Net Tumor Volume ± S.E.M.,"[4]; CaKi-1, DAY 26",484 ± 49 mg
same,Net Tumor Volume ± S.E.M.,"[4]; CaKi-1, DAY 29",623 ± 59 mg
same,Net Tumor Volume ± S.E.M.,"[4]; CaKi-1, DAY 33",746 ± 77 mg
same,Net Tumor Volume ± S.E.M.,"[4]; CaKi-1, DAY 36",956 ± 102 mg
same,Net Tumor Volume ± S.E.M.,"[4]; CaKi-1, DAY 41",1206 ± 116 mg
same,Net Tumor Volume ± S.E.M.,"[4]; CaKi-1, DAY 47",1684 ± 120 mg
same,Net Tumor Volume ± S.E.M.,"[4]; CaKi-1, DAY 50",2403 ± 218 mg
